Test results from paper PMC12102759 (Protein Science : A Publication of the Protein Society, 2025).

Tested on: AP2M1 MU
Assay type: binding, human

VSDIDYVPLKSATA(averaged) Y6S (VSDIDSVPLKSATA)
PSSM value of the substitution, averaged over the two overlapping peptides: 0

VSDIDYVPLKSATA(averaged) V7F (VSDIDYFPLKSATA)
PSSM value of the substitution, averaged over the two overlapping peptides: 0.4299

QVVSDIDYVPLKSATA A14N (QVVSDIDYVPLKSNTA)
PSSM value of the substitution (DMS by phage display): 0.3414

VSDIDYVPLKSATAIT D5G (VSDIGYVPLKSATAIT)
PSSM value of the substitution (DMS by phage display): 0.000826

VSDIDYVPLKSATAIT Y6H (VSDIDHVPLKSATAIT)
PSSM value of the substitution (DMS by phage display): 0

VSDIDYVPLKSATAIT D3Y (VSYIDYVPLKSATAIT)
PSSM value of the substitution (DMS by phage display): 0.009713

VSDIDYVPLKSATA(averaged) S2D (VDDIDYVPLKSATA)
PSSM value of the substitution, averaged over the two overlapping peptides: 0

QVVSDIDYVPLKSATA P10F (QVVSDIDYVFLKSATA)
PSSM value of the substitution (DMS by phage display): 0

QVVSDIDYVPLKSATA P10L (QVVSDIDYVLLKSATA)
PSSM value of the substitution (DMS by phage display): 0.27

VSDIDYVPLKSATAIT L9Y (VSDIDYVPYKSATAIT)
PSSM value of the substitution (DMS by phage display): 0

VSDIDYVPLKSATA(averaged) V1R (RSDIDYVPLKSATA)
PSSM value of the substitution, averaged over the two overlapping peptides: 0.4088

QVVSDIDYVPLKSATA T15E (QVVSDIDYVPLKSAEA)
PSSM value of the substitution (DMS by phage display): 0.0006744

QVVSDIDYVPLKSATA T15L (QVVSDIDYVPLKSALA)
PSSM value of the substitution (DMS by phage display): 0.002355

QVVSDIDYVPLKSATA D7A (QVVSDIAYVPLKSATA)
PSSM value of the substitution (DMS by phage display): 0.001907

QVVSDIDYVPLKSATA A14Q (QVVSDIDYVPLKSQTA)
PSSM value of the substitution (DMS by phage display): 0

VSDIDYVPLKSATA(averaged) T13N (VSDIDYVPLKSANA)
PSSM value of the substitution, averaged over the two overlapping peptides: 0.0004027

VSDIDYVPLKSATAIT I15R (VSDIDYVPLKSATART)
PSSM value of the substitution (DMS by phage display): 0

QVVSDIDYVPLKSATA I6H (QVVSDHDYVPLKSATA)
PSSM value of the substitution (DMS by phage display): 0.001687

VSDIDYVPLKSATAIT S11A (VSDIDYVPLKAATAIT)
PSSM value of the substitution (DMS by phage display): 0.001589

VSDIDYVPLKSATAIT P8H (VSDIDYVHLKSATAIT)
PSSM value of the substitution (DMS by phage display): 0

VSDIDYVPLKSATAIT T13D (VSDIDYVPLKSADAIT)
PSSM value of the substitution (DMS by phage display): 0.01469

VSDIDYVPLKSATAIT I15T (VSDIDYVPLKSATATT)
PSSM value of the substitution (DMS by phage display): 0.174

QVVSDIDYVPLKSATA A16K (QVVSDIDYVPLKSATK)
PSSM value of the substitution (DMS by phage display): 0

QVVSDIDYVPLKSATA T15Q (QVVSDIDYVPLKSAQA)
PSSM value of the substitution (DMS by phage display): 0

QVVSDIDYVPLKSATA V2R (QRVSDIDYVPLKSATA)
PSSM value of the substitution (DMS by phage display): 0.0006615

VSDIDYVPLKSATAIT S2A (VADIDYVPLKSATAIT)
PSSM value of the substitution (DMS by phage display): 0.003011

QVVSDIDYVPLKSATA S13K (QVVSDIDYVPLKKATA)
PSSM value of the substitution (DMS by phage display): 0

VSDIDYVPLKSATA(averaged) Y6F (VSDIDFVPLKSATA)
PSSM value of the substitution, averaged over the two overlapping peptides: 0

QVVSDIDYVPLKSATA P10S (QVVSDIDYVSLKSATA)
PSSM value of the substitution (DMS by phage display): 0.02069

VSDIDYVPLKSATA(averaged) Y6M (VSDIDMVPLKSATA)
PSSM value of the substitution, averaged over the two overlapping peptides: 0

VSDIDYVPLKSATAIT S11E (VSDIDYVPLKEATAIT)
PSSM value of the substitution (DMS by phage display): 0.00113

VSDIDYVPLKSATAIT S2D (VDDIDYVPLKSATAIT)
PSSM value of the substitution (DMS by phage display): 0

QVVSDIDYVPLKSATA S13D (QVVSDIDYVPLKDATA)
PSSM value of the substitution (DMS by phage display): 0.9138

VSDIDYVPLKSATAIT S11Y (VSDIDYVPLKYATAIT)
PSSM value of the substitution (DMS by phage display): 0.01416

QVVSDIDYVPLKSATA I6T (QVVSDTDYVPLKSATA)
PSSM value of the substitution (DMS by phage display): 0

QVVSDIDYVPLKSATA Y8A (QVVSDIDAVPLKSATA)
PSSM value of the substitution (DMS by phage display): 0

VSDIDYVPLKSATAIT A12N (VSDIDYVPLKSNTAIT)
PSSM value of the substitution (DMS by phage display): 0.01184

VSDIDYVPLKSATAIT S11V (VSDIDYVPLKVATAIT)
PSSM value of the substitution (DMS by phage display): 0.0159

VSDIDYVPLKSATAIT V1S (SSDIDYVPLKSATAIT)
PSSM value of the substitution (DMS by phage display): 0.005325

QVVSDIDYVPLKSATA P10T (QVVSDIDYVTLKSATA)
PSSM value of the substitution (DMS by phage display): 0

VSDIDYVPLKSATAIT K10L (VSDIDYVPLLSATAIT)
PSSM value of the substitution (DMS by phage display): 0.003198

QVVSDIDYVPLKSATA V2Y (QYVSDIDYVPLKSATA)
PSSM value of the substitution (DMS by phage display): 0

QVVSDIDYVPLKSATA I6R (QVVSDRDYVPLKSATA)
PSSM value of the substitution (DMS by phage display): 0

VSDIDYVPLKSATAIT A12E (VSDIDYVPLKSETAIT)
PSSM value of the substitution (DMS by phage display): 0.2236

QVVSDIDYVPLKSATA I6G (QVVSDGDYVPLKSATA)
PSSM value of the substitution (DMS by phage display): 0

QVVSDIDYVPLKSATA K12L (QVVSDIDYVPLLSATA)
PSSM value of the substitution (DMS by phage display): 0.0001065

QVVSDIDYVPLKSATA D5T (QVVSTIDYVPLKSATA)
PSSM value of the substitution (DMS by phage display): 0

VSDIDYVPLKSATAIT D3S (VSSIDYVPLKSATAIT)
PSSM value of the substitution (DMS by phage display): 0

VSDIDYVPLKSATAIT V7T (VSDIDYTPLKSATAIT)
PSSM value of the substitution (DMS by phage display): 0

QVVSDIDYVPLKSATA L11Y (QVVSDIDYVPYKSATA)
PSSM value of the substitution (DMS by phage display): 0

QVVSDIDYVPLKSATA V9Q (QVVSDIDYQPLKSATA)
PSSM value of the substitution (DMS by phage display): 0.002905

VSDIDYVPLKSATA(averaged) D5D
PSSM value of the substitution, averaged over the two overlapping peptides: 0.002722

VSDIDYVPLKSATAIT L9L
PSSM value of the substitution (DMS by phage display): 0.4588

VSDIDYVPLKSATAIT T13R (VSDIDYVPLKSARAIT)
PSSM value of the substitution (DMS by phage display): 0.005583

VSDIDYVPLKSATA(averaged) A14E (VSDIDYVPLKSATE)
PSSM value of the substitution, averaged over the two overlapping peptides: 0

VSDIDYVPLKSATA(averaged) D5Y (VSDIYYVPLKSATA)
PSSM value of the substitution, averaged over the two overlapping peptides: 0.06229

QVVSDIDYVPLKSATA V3I (QVISDIDYVPLKSATA)
PSSM value of the substitution (DMS by phage display): 0.09709

VSDIDYVPLKSATAIT K10G (VSDIDYVPLGSATAIT)
PSSM value of the substitution (DMS by phage display): 0.002648

VSDIDYVPLKSATAIT L9P (VSDIDYVPPKSATAIT)
PSSM value of the substitution (DMS by phage display): 0

VSDIDYVPLKSATAIT I15M (VSDIDYVPLKSATAMT)
PSSM value of the substitution (DMS by phage display): 0.03554

VSDIDYVPLKSATA(averaged) S11I (VSDIDYVPLKIATA)
PSSM value of the substitution, averaged over the two overlapping peptides: 1.716e-5

QVVSDIDYVPLKSATA S13Q (QVVSDIDYVPLKQATA)
PSSM value of the substitution (DMS by phage display): 3.305e-5

VSDIDYVPLKSATAIT A12S (VSDIDYVPLKSSTAIT)
PSSM value of the substitution (DMS by phage display): 0.2885

QVVSDIDYVPLKSATA T15I (QVVSDIDYVPLKSAIA)
PSSM value of the substitution (DMS by phage display): 0

VSDIDYVPLKSATAIT S2M (VMDIDYVPLKSATAIT)
PSSM value of the substitution (DMS by phage display): 0.007032

QVVSDIDYVPLKSATA L11N (QVVSDIDYVPNKSATA)
PSSM value of the substitution (DMS by phage display): 0

VSDIDYVPLKSATAIT S2P (VPDIDYVPLKSATAIT)
PSSM value of the substitution (DMS by phage display): 0.09109
